Test results published in PubChem BioAssay AID1645848.
Some of these compounds have results that are not shown, active ones among them.

Conditions: buffer; pH 7.4; 6.0 h; 150.0 µM

Compound `O=C(C1CCC1)N1CCN(C/C=C/c2ccccc2)CC1` has a solubility kinetic of less than 1 µg/mL.
